Reference: article PMC12836348, “Alanine Mutagenesis Identifies Specific Amino Acids of Nemertide Alpha‑1 Activity and Its Binding to Target Receptors” (Journal of Natural Products, 2025)

Test system: VdNav
Assay: Ion channel panel, VdNav
Type: cell-based, Varroa destructor
Set-up: key: “+” means tested and produced effect; “–“ means tested but no effect
Details: S12A at 5 μM; Xenopus oocytes, n ≥ 3
Experimental: For the expression of NaV channels (hNav1.1, rNaV1.2, rNaV1.3, rNaV1.4, hNaV1.5, hNaV1.6, hNav1.7, and the insect channel BgNaV1) in Xenopus laevis oocytes, the linearized plasmids were transcribed using the T7 or SP6 mMESSAGE-mMACHINE transcription kit (Ambion, Carlsbad, CA, USA). The harvesting of stage V and VI oocytes from an anaesthetized female X. laevis frog was described previously. , Oocytes were injected with 50 nL of cRNA at a concentration of 1 ng/nL using a microinjector (Drummond Scientific, Broomall, PA, USA). The oocytes were incubated in a solution containing 96 mM NaCl, 2 mM KCl, 1.8 mM CaCl2, 2 mM MgCl2, and 5 mM HEPES (pH 7.4), supplemented with 50 mg/L gentamycin sulfate. […] Whole-cell currents from oocytes were recorded 1–4 days after injection. […]
To assess the concentration–response relationships, data were fitted with the Hill equation: y = 100/[1 + (EC50/[toxin])^ h ], where y is the amplitude of the toxin-induced effect (y = I 30 ms/I peak where I 30 ms is the current value at 30 ms in the presence of toxin and I peak is the peak current amplitude in control conditions), EC50 is the toxin concentration at half-maximal efficacy, [toxin] is the toxin concentration, and h is the Hill coefficient. […] ASIC1a currents were measured in ND96 solutions at a pH of 7.4 and 4.5, at a holding potential of −70 mV during 400 s, and the data were filtered at 20 Hz. […]

SMILES: CC[C@H](C)[C@@H]1NC(=O)[C@@H](NC(=O)CN)CSSC[C@@H]2NC(=O)[C@@H]3CSSC[C@@H](C(=O)N[C@@H](CC(N)=O)C(=O)N4C[C@H](O)C[C@H]4C(=O)N4C[C@H](O)C[C@H]4C(=O)N[C@@H](CC(N)=O)C(=O)N[C@@H](CCC(N)=O)C(=O)O)NC(=O)[C@H](CCCCN)NC(=O)[C@H](Cc4ccccc4)NC(=O)[C@H](CC(N)=O)NC(=O)[C@H](Cc4c[nH]c5ccccc45)NC(=O)CNC(=O)[C@H](CSSC[C@H](NC(=O)[C@H](Cc4ccccc4)NC(=O)[C@H](CO)NC(=O)CNC(=O)[C@H]([C@@H](C)O)NC(=O)[C@H](C)NC1=O)C(=O)N[C@@H]([C@@H](C)O)C(=O)N[C@@H](CC(C)C)C(=O)N[C@@H](C)C(=O)N[C@@H](CCCCN)C(=O)NCC(=O)N3)NC(=O)[C@H](CC(N)=O)NC(=O)[C@H](CCCCN)NC(=O)[C@H]([C@@H](C)O)NC2=O [Peptide S12A]
- effect on VdNav: +
